Test results taken from US20160115247A1, “SINGLE DOMAIN ANTIBODIES DIRECTED AGAINST INTRACELLULAR ANTIGENS” (SINGH BIOTECHNOLOGY, LLC, priority 2014, published 2016).

Test system: U937 cells
Test: Cytotoxicity in U937 cells, Cell Titer-Glo luminescent viability
Assay type: cell-based, human
Settings: 24 hours of culture; ATP quantitation
Method: The concentration of TNF-alpha required to show measurable modulation of activity in the U937 human lung lymphoblast cell line was evaluated by quantitation of the ATP present, which signals the presence of metabolically active cells using Promega's Cell Titer-GJo® Luminescent Cell Viability assay.
The U937 cells were seeded in a clear polystyrene 96-well microculture plate (Corning® Costar® 96-well flat bottom plate, Cat. #3997) in a total volume of 90 μL/well. After 24 hours of incubation in a humidified incubator at 37° C. with 5% CO2 and 95% air, 5 μL of 20×, serially diluted TNF-alpha in growth medium was added to each well in duplicate (10 pt dose response, highest concentration 20 ng/mL). Additionally, 5 μL of 20×, diluted staurosporine in growth medium was added to each well in duplicate (concentration 1 nM).
After 24 hours of culture in the presence of test agents, the concentration of compound required to show measurable modulation of TNF-alpha activity in the U937 cell line as evaluated by quantitation of the ATP present. Percent cell growth was calculated relative to untreated control wells. All tests were performed in duplicate at each concentration level.
The EC50 value for the test agents was estimated using Prism 6.05 by curve-fitting the data using the following four parameter-logistic equation: […]

Substance: TNF-alpha: proinflammatory cytokine, test agent cytotoxic to U937 cells
- IC50 against U937: 0.0951 ng/mL
